From patent publication US5059627A, “Nerve growth factor secretion inducing composition” (Takeda Chemical Industries, Ltd., priority 1989, dated 1991) come the findings set out here.

A short description of the series: in vivo. The note with it: mouse, po.

Structures are written as SMILES.

As for `COC1=C(OC)C(=O)C(CCCCCCCCCCO)=C(C)C1=O` [6-(10-hydroxydecyl)-2,3-dimethoxy-5-methyl-1,4-benzoquinone], the LD50 (in general, the dose at which mortality reaches 50%) is greater than 1000 mg/kg.
With `COC1=C(OC)C(=O)C(C)=CC1=O` [2,3-Dimethoxy-5-methyl-1,4-benzoquinone, 2,3-dimethoxy-5-methyl-1,4-benzoquinone], the LD50 is greater than 500 mg/kg.
